Experiment: External ear dosing of 3% moxigel after 10% or 50% IPM pretreatment, MEF microdialysis
Details: 3% moxigel 9 mg external ear, mean

- Time over 10 μg/mL: 2847 min
Compound: COc1c(N2C[C@@H]3CCCN[C@@H]3C2)c(F)cc2c(=O)c(C(=O)O)cn(C3CC3)c12 [moxifloxacin]

Reference: patent publication US20120289541A1 (NOVARTIS AG, priority 2010, published 2012)
